Experimental data taken from patent US11261186B2, “Biaryl derivative as GPR120 agonist” (LG CHEM, LTD., priority 2014, dated 2022).
pEC50: −log10 of the molar value.

Sequences of proteins named here, by UniProt entry; tags and fusion partners are left off.
UniProt Q5NUL3, whole entry: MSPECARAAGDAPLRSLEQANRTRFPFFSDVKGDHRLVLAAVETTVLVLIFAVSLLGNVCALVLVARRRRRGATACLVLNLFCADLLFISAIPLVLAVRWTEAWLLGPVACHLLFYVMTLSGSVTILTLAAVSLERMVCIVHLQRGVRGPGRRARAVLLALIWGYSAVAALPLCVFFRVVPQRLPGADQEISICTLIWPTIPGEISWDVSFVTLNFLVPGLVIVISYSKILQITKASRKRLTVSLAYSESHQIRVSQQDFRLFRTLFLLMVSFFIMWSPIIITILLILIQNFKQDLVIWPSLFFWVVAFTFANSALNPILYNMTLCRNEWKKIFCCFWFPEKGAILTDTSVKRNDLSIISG

Molecular target: hGPR120 (Homo sapiens, UniProt Q5NUL3)
Assay: Measurement of Activity of GPR120 Agonist (Cell-Based Assay), Calcium 5 dye fluorescence
Details: CHO-K1 cells expressing Ga16 and hGPR120

pEC50 | SMILES
> 6.70 | O=C(O)CCCOc1c(F)cc(-c2csc(COCC3CCC3)c2)cc1F
> 6.70 | O=C(O)CC1CCN(c2c(F)cc(-c3nccc(Oc4ccc(Cl)cc4)n3)cc2F)CC1
> 6.70 | O=C(O)CC1CN(c2c(F)cc(-c3nccc(OC4CCC4)n3)cc2F)C1
